Source: patent publication US4963363A, “Phospholipid delivery vehicle for aqueous-insoluble active ingredients” (priority 1989, dated 1990)

Experiment: Compatibility of lipid triglycerides with HXM solubilization and phospholipid emulsion

Q: Which “ability of triglyceride to solubilize HXM” value does the source give for `CCCC(=O)OCC(COC(=O)CCC)OC(=O)CCC` [tributyrin] here?
A: poorly solubilize HXM
